Data: US20240400586A1, “HETEROARYL DERIVATIVE PARP INHIBITOR AND USE THEREOF” (HAISCO PHARMACEUTICAL GROUP CO., LTD., priority 2021, published 2024)

By UniProt entry, the sequences of proteins in these tests, tags left out. Residues count along the entry.
UniProt Q460N5, 1470-1801 limits assumed: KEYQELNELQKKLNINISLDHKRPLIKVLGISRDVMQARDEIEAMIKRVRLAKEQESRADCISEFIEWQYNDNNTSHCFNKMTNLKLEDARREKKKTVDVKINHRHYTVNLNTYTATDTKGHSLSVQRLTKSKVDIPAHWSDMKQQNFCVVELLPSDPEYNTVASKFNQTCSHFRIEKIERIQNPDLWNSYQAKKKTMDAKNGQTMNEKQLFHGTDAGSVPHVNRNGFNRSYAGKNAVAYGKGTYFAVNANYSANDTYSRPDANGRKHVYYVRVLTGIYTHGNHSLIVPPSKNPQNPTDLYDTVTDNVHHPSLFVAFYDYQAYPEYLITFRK

Molecular target: PARP14 (Homo sapiens (Human), UniProt Q460N5)
Experiment: PARP14 enzyme activity test
Type: biochemical

`CCc1cc2ncc(CN3CCN(c4ccc(C(=O)NC5CC5)nc4)CC3)cc2[nH]c1=O` [Compound 4, N-cyclopropyl-5-(4-((7-ethyl-6-oxo-5,6-dihydro-1,5-naphthyridin-3-yl)methyl)piperazin-1-yl)picolinamide] was tested, and the IC50 was > 0.5 µM and 7.06 µM.

Where “and” joins values, the source holds several entries; their conditions need not be identical. Identical values can stand only once.
